The results in this text go back to PMC10954796, “Post-translational modifications of beta-amyloid alter its transport in the blood-brain barrier in vitro model” (Frontiers in Molecular Neuroscience, 2024).

By UniProt entry, the sequences of proteins in these tests, tags left out. Residues count along the entry.
UniProt Q15109, 23-342 limits assumed: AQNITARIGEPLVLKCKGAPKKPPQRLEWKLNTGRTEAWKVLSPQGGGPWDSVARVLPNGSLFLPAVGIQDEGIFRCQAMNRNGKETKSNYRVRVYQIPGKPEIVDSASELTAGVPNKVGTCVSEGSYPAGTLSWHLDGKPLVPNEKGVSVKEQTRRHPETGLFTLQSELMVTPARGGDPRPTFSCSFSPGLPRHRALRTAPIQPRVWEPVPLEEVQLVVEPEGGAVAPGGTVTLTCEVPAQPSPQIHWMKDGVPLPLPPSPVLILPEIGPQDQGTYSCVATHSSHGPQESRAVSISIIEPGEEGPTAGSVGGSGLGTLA

The structures appear in SMILES notation.

The target of this assay is T1, sRAGE (Homo sapiens, UniProt Q15109).
T1 construct: the soluble extracellular part of RAGE (sRAGE); purchased Abcam
Description: Microscale thermophoresis, interaction with sRAGE. Particulars: MST; 50 nM labeled sRAGE; peptide dissolved in PBS, 38.1 nM to 1.25 mM; 4% DMSO, 20% glycerol. In kind it is binding. On the technique in general: MST reads how a fluorescent partner responds to local heating, with and without ligand.

With `CC(C)[C@H](NC(=O)[C@H](CCC(=O)O)NC(=O)[C@H](Cc1ccc(O)cc1)NC(=O)CNC(=O)[C@H](CO)NC(=O)[C@H](CC(=O)O)NC(=O)[C@H](Cc1c[nH]cn1)NC(=O)[C@H](CCCNC(=N)N)NC(=O)[C@H](Cc1ccccc1)NC(=O)[C@H](CCC(=O)O)NC(=O)[C@H](C)NC(=O)[C@@H](N)CC(=O)O)C(=O)N[C@@H](Cc1c[nH]cn1)C(=O)N[C@@H](Cc1c[nH]cn1)C(=O)N[C@@H](CCC(N)=O)C(=O)N[C@@H](CCCCN)C(=O)O` [Aβ1 − 16], the “interaction with sRAGE” value is given as “not detected”.
